According to US4938897A, “Chlorambucil derivatives and cell-discriminating agent containing the same” (Kureha Kagaku Kogyo Kabushiki Kaisha, priority 1985, dated 1990):

Tested on: ICR-JCL mouse
Details: 80 mg/kg body weight

SMILES: O=C(O)CCCc1ccc(N(CCCl)CCCl)cc1 [chlorambucil]
- death: died just after the administration
